The chains behind the UniProt entries cited, without tags or fusion partners.
UniProt P41595, whole entry: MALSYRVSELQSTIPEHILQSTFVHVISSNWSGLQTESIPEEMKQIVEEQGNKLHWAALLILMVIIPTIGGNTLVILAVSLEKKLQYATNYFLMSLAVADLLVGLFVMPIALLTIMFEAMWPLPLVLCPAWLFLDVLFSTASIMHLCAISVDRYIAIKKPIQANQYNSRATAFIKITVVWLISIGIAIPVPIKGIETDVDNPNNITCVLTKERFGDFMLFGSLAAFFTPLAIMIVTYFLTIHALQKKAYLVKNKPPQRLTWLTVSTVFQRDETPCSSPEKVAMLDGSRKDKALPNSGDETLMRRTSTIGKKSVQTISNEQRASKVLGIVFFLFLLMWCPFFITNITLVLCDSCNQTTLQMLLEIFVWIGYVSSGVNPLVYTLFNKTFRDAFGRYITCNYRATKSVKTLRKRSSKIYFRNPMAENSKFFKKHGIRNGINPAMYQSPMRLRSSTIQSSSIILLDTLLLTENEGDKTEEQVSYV

In ChEMBL document CHEMBL5344480, “Synthesis and bioactivity of psilocybin analogues containing a stable carbon-phosphorus bond” (RSC Med Chem, 2024):

Biological target: 5-hydroxytryptamine receptor 2B (Homo sapiens, UniProt P41595)

SMILES	Ki [µM]
CN(C)CCc1c[nH]c2cccc(O)c12 [PSILOCIN]	0.0046
CN(C)CCc1c[nH]c2cccc(OP(=O)(O)O)c12 [PSILOCYBIN]	0.0987
